# Earlier results in publication PMC3409241, “Probing Cocaine-Antibody Interactions in Buffer and Human Serum” (PLoS ONE, 2012).
# Where a name gives a salt, the structure may show the parent alone.
# Details: patients who smoked 10–40 mg of cocaine base; cited from earlier work
structure (smiles),measurement,value
"COC(=O)[C@H]1[C@@H](OC(=O)c2ccccc2)C[C@@H]2CC[C@H]1N2C [Cocaine, Cocaine hydrochloride]",peak plasma concentrations,150 to 500 nM
